# Reference: patent US7745424B2, “Alkane diol derivatives as therapeutic agents for the treatment of bone conditions” (The Univeristy Court of the University of Aberdeen, priority 2001, dated 2010)
# Test system: macrophage cell line J774
# Assay: Alamar Blue macrophage J774 viability assay
# Settings: read-out: IC50 (μM) Alamar Blue, 72 hours
smiles,measurement,value
O=C(OCCCCO[N+](=O)[O-])c1ccc(-c2ccc([N+](=O)[O-])cc2[N+](=O)[O-])c([N+](=O)[O-])c1,IC50,35 µM
